This passage reports EC50 results from ChEMBL document CHEMBL1154647, “Synthesis, spectral characterization and biological evaluation of phosphorylated derivatives of galanthamine” (Eur J Med Chem, 2010).

Amino acid sequences for entries named in this document (tags omitted). Residues count along the entry.
UniProt P04762, 2-527 limits assumed: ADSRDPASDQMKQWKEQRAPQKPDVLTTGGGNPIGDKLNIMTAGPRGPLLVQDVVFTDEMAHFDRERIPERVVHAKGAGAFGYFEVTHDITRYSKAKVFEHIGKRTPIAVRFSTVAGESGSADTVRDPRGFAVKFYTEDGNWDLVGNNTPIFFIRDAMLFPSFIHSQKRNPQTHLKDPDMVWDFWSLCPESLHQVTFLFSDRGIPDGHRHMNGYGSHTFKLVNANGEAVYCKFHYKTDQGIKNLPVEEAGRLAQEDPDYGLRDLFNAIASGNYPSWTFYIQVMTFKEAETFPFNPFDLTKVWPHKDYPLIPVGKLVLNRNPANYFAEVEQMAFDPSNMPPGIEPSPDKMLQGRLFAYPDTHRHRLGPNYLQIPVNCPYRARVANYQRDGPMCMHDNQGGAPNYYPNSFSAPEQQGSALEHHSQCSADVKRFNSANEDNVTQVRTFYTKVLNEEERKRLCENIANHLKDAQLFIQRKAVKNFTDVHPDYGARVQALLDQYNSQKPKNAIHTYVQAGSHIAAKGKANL

Experiment [1] deals with Brain. Briefly: Antioxidant activity in Wistar rat brain assessed as inhibition of lipid peroxidation. The following applies: strain Wistar.
The subject of experiment [2] is Brain. Briefly: Antioxidant activity in Wistar rat brain assessed as reduction in glutathione content. Conditions: strain Wistar.
Experiment [3] can be described thus: Inhibition of superoxide dismutase in Wistar rat brain. The format is tissue-based. Conditions: strain Wistar.
Another experiment has as its target Catalase (Rattus norvegicus, UniProt P04762). The experiment in a line: Inhibition of catalase in Wistar rat brain.

Structures are written as SMILES. Converted amounts (≈) assume the structure as drawn.

In the case of `COc1ccc2c3c1O[C@H]1C[C@@H](OP(=O)(Oc4ccc([N+](=O)[O-])cc4)SCCN)C=C[C@@]31CCN(C)C2` (stereo partly drawn), the EC50 in the experiment with Brain [1] was 1.86 µg/mL (≈ 3.4 µM); with Brain [2], 1.56 µg/mL (≈ 2.85 µM); in experiment [3], 1.74 µg/mL (≈ 3.18 µM); on Catalase it was 2.03 µg/mL (≈ 3.71 µM).

Turning to `COc1ccc2c3c1O[C@H]1C[C@@H](OP(=O)(SCCN)N(CCCl)CCCl)C=C[C@@]31CCN(C)C2` (stereo partly drawn), the EC50 with Brain [1] was 2.91 µg/mL (≈ 5.29 µM); in the experiment on Brain [2], 2.66 µg/mL (≈ 4.83 µM); in experiment [3], 2.31 µg/mL (≈ 4.2 µM); at Catalase, 2.66 µg/mL (≈ 4.83 µM).
